A selection: hits, their analogues and other compounds. The true share with any hit is near 1.3%.
UUG fidelity: yeast start codon fidelity modulation; AID 602363; activity score, % at 18.7 µM; S. cerevisiae UUG-firefly luciferase reporter, luminescence/redox ratio; 0.13% of 350,000 active;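 active means replicate mean at a twofold rise or more, about +100% in these data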;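 further: firefly luciferase made from a UUG start codon reports start codon fidelity; reporter light over untreated wells divided by growth signal over untreated wells; some hits fall short of that in this replicate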
ARNT-TACC3 inh: disrupts binding between human ARNT and TACC3; Q9Y6A5; AlphaScreen His-ARNT PAS-B/GST-TACC3 binding, luminescence; TACC3 fragment carries E629A point mutation; inhibition, % at 9.99 µM; actives 0.66% (n = 390,000); AID 623870;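 active means mean inhibition of replicates at least 50% and at least half of replicates each reaching 50%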;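 further: 0% = complete ARNT plus TACC3 wells and 100% = ARNT alone without TACC3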
AF4-AF9 inh: MLL-AF4/AF9 protein interaction inhibition; AlphaScreen, biotin-AF4 peptide binding to FLAG-AF9; inhibition, % at 10 µM; actives 0.47% (n = 350,000); AID 651704;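 active means every replicate reaching a set inhibition limit, whatever the replicate mean, cut at about 25% in these data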;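 further: 0% = plate neutral control median and 100% = total signal loss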
ERAP1 HTS inh: ERAP1 (human) enzyme inhibition; Q9NZ08; recombinant ERAP1, Leu-AMC fluorescence, 60 min; inhibition, % at 10.7 µM; actives 0.15% (n = 340,000);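 active means mean replicate inhibition of at least 30%, or all replicates individually reaching that 30% level; inactive means mean below 30% and not every replicate reaching it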;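 further: 0% = neutral control wells and 100% = L-leucinethiol positive control wells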
S100A4 MyoIIA: inhibitors of human S100A4 binding to myosin IIA peptide. inhibition, % at 10.7 µM. P26447. S100A4/TAMRA-MyoIIA peptide fluorescence polarization. actives 0.14% (n = 360,000);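 active means mean inhibition of at least 70% across replicates, with every replicate also reaching that level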
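Material: human S100A4 monomer with TAMRA-labelled myosin IIA peptide; buffer or medium: HEPES pH 7.2 with CaCl2, KCl, NaCl, DTT, Triton; compound dosing: one concentration per compound; schedule: 5 min incubation before reading; benchmarks: neutral control DMSO, positive control TFP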
E-sel inducer: E-selectin induction on HUVECs; P16581; HUVEC E-selectin immunofluorescence imaging; normalized: neutral wells 0, TNF-alpha wells 100; actives 0.37% (n = 260,000); AID 686992; activation, % at 7.58 µM;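 active means mean E-selectin-positive cell signal at least 10% of the positive control, reached in at least 60% of replicates, without over 20% cell loss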
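Read-out: % PE-positive cells | Test system: HUVEC | Doses: One compound dose added by pin transfer | Buffer or medium: EGM-2 over gelatin coat | Signal: Immunofluorescence imaging | Benchmarks: TNF-alpha, DMSO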
Active calls of the source: *.

For CCC(=O)N(C)C[C@H]1Oc2cc(-c3cncnc3)ccc2S(=O)(=O)N([C@H](C)CO)C[C@@H]1C the results were UUG fidelity -1, ARNT-TACC3 inh 2, AF4-AF9 inh 3, ERAP1 HTS inh 5, S100A4 MyoIIA -1 and E-sel inducer 0.
`CN=c1scc(C)n1/N=C/c1ccc(O)c(O)c1O` gave UUG fidelity -22 and ARNT-TACC3 inh 33.
For CN=c1scc(-c2cccs2)n1/N=C/c1ccc(O)c(O)c1O the results were ARNT-TACC3 inh 60*, AF4-AF9 inh 40*, ERAP1 HTS inh -3 and S100A4 MyoIIA -6.
C=CCN=c1scc(-c2ccco2)n1/N=C/c1ccc(O)c(O)c1O was read as ARNT-TACC3 inh 49*, AF4-AF9 inh -1, ERAP1 HTS inh -2 and S100A4 MyoIIA 6.
Oc1ccc(/C=N/n2c(-c3ccco3)csc2=Nc2cccnc2)c(O)c1 was read as UUG fidelity -20 and ARNT-TACC3 inh 64*.
Screening C[C@@H]1CN([C@@H](C)CO)C(=O)Cc2cc(NC(=O)Nc3ccc4c(c3)OCO4)ccc2O[C@H]1CN(C)S(=O)(=O)c1ccc(Cl)cc1 returned UUG fidelity 0, ARNT-TACC3 inh 0, AF4-AF9 inh 7, ERAP1 HTS inh 1, S100A4 MyoIIA 11 and E-sel inducer -11.
COc1cccc(-c2ccc([C@H]3[C@H](CO)N(C(=O)C4CC4)C34CN(C(C)=O)C4)cc2)c1 was read as AF4-AF9 inh -1, ERAP1 HTS inh -1, S100A4 MyoIIA -12 and E-sel inducer 0.
COc1cc(C=C2NC(=O)NC2=O)ccc1O was read as UUG fidelity 10, AF4-AF9 inh -2, ERAP1 HTS inh 1, S100A4 MyoIIA 9 and E-sel inducer 0.
Screening COc1cc(C=C2C(=O)C=CC2=O)ccc1O returned AF4-AF9 inh -12, ERAP1 HTS inh 53*, S100A4 MyoIIA 0 and E-sel inducer 0.
Screening COC(=O)C1=C(C)N(Cc2ccccc2)C(=NCc2ccccc2)N[C@H]1c1ccccc1 returned UUG fidelity 8, ARNT-TACC3 inh 5, AF4-AF9 inh 10, ERAP1 HTS inh 1, S100A4 MyoIIA 6 and E-sel inducer 0.
For COCCN=C1N[C@@H](c2ccc(Br)cc2)C(C(=O)OC)=C(C)N1Cc1ccccc1 the results were UUG fidelity -8, ARNT-TACC3 inh 5, AF4-AF9 inh 3, ERAP1 HTS inh 91*, S100A4 MyoIIA -1 and E-sel inducer 0.
COC(=O)C1=C(C)N(Cc2ccccc2)C(=NCc2ccccc2)N[C@H]1c1cccc(F)c1 was read as UUG fidelity 10, AF4-AF9 inh 10, ERAP1 HTS inh 53*, S100A4 MyoIIA 3 and E-sel inducer 0.
For CCN(CC)CCCN=C1N[C@@H](c2cccc(C(F)(F)F)c2)C(C(=O)OC)=C(C)N1CC the results were UUG fidelity -3, ARNT-TACC3 inh -2, AF4-AF9 inh 0, ERAP1 HTS inh 61*, S100A4 MyoIIA 3 and E-sel inducer 0.
C[C@H](CO)N1C[C@H](C)[C@@H](CN(C)S(=O)(=O)c2ccc(C(F)(F)F)cc2)OCc2ccccc2-c2ccccc2C1=O was read as ARNT-TACC3 inh -9, AF4-AF9 inh 1, ERAP1 HTS inh 0, S100A4 MyoIIA 2 and E-sel inducer 3.
For COc1ccc(OCC(O)CNC(=O)c2ccccc2)cc1 (stereo not drawn) the results were ARNT-TACC3 inh -16, AF4-AF9 inh 1, S100A4 MyoIIA 5 and E-sel inducer 77*.
Screening COc1ccc(OCC(O)CNC(=O)c2ccc(C)cc2)cc1 (stereo not drawn) returned ARNT-TACC3 inh -6, AF4-AF9 inh 2 and S100A4 MyoIIA -6.
For CC(C)N1C(=O)CCC1C(=O)N1CCCc2ccccc21 (stereo not drawn) the results were UUG fidelity 7 and ARNT-TACC3 inh 13*.
For O=C(C1CCCCC1)N1CCCc2ccccc21 the results were UUG fidelity -10 and ARNT-TACC3 inh 1.
`C[C@@H]1CN([C@@H](C)CO)C(=O)c2cc(/C=C/c3ccccc3)cnc2O[C@@H]1CN(C)Cc1cncnc1` gave AF4-AF9 inh 2, ERAP1 HTS inh 3, S100A4 MyoIIA -7 and E-sel inducer 3.
C[C@@H]1CCCCO[C@@H](CN(C)C)[C@@H](C)CN([C@H](C)CO)C(=O)c2cc(NS(C)(=O)=O)ccc2O1 was read as UUG fidelity -15, ARNT-TACC3 inh 5, AF4-AF9 inh 2, ERAP1 HTS inh -3, S100A4 MyoIIA -4 and E-sel inducer 0.
COc1ccc(/C=N/Nc2nc3ccccc3o2)cc1O was read as UUG fidelity -19 and ARNT-TACC3 inh 44*.
For COc1ccc(CN(C)C[C@H]2OCCCC[C@H](C)Oc3ccc(NS(=O)(=O)c4cccs4)cc3C(=O)N([C@H](C)CO)C[C@H]2C)cc1 the results were UUG fidelity 15, ARNT-TACC3 inh 8, AF4-AF9 inh 6, ERAP1 HTS inh -1, S100A4 MyoIIA 14 and E-sel inducer 0.
For C[C@H](CO)N1C[C@H](C)[C@H](CN(C)C(=O)Nc2ccccc2)Oc2ncc(C#CC3CC3)cc2C1=O the results were UUG fidelity -17, ARNT-TACC3 inh 1, AF4-AF9 inh -1, ERAP1 HTS inh -2, S100A4 MyoIIA -3 and E-sel inducer 1.
OC[C@@H]1[C@@H](c2ccccc2)C2(CN(CC3CC3)C2)N1Cc1ccc(F)cc1 was read as AF4-AF9 inh 5, ERAP1 HTS inh 4, S100A4 MyoIIA -11 and E-sel inducer 0.
Cc1cc(C(=O)O)ccc1N/C=C1\CCCC(C)C1=O (stereo not drawn) was read as UUG fidelity -58 and ARNT-TACC3 inh -3.
For CC1CCC/C(=C\Nc2ccc(O)cc2)C1=O (stereo not drawn) the results were UUG fidelity -6 and ARNT-TACC3 inh 21*.
For CCCNC(=O)[C@H]1[C@H](CO)[C@H]2Cn3c(ccc(C4=CCCC4)c3=O)[C@@H]1N2C(=O)C1CC1 the results were ARNT-TACC3 inh -1, AF4-AF9 inh 0, ERAP1 HTS inh 1, S100A4 MyoIIA -1 and E-sel inducer 0.
O=C(Nc1ccccc1F)N[C@H]1CC[C@@H](CC(=O)N2CCCCC2)O[C@@H]1CO was read as UUG fidelity -4, ARNT-TACC3 inh -27, AF4-AF9 inh -2, ERAP1 HTS inh -2, S100A4 MyoIIA 16 and E-sel inducer 0.
Screening CCS(=O)(=O)NCC[C@@H]1CC[C@@H](NC(=O)C2CCCCC2)[C@H](CO)O1 returned E-sel inducer 0.
Screening CC1=[N+](C)c2ccc3ccccc3c2C1(C)C returned ARNT-TACC3 inh 13, AF4-AF9 inh 23, ERAP1 HTS inh 3, S100A4 MyoIIA 145* and E-sel inducer 196*.

Among those listed so far, these contain two or more sulfur atoms.
For CN=c1scc(-c2cccs2)n1/N=C/c1ccc(O)c(O)c1O the results were ARNT-TACC3 inh 60*, AF4-AF9 inh 40*, ERAP1 HTS inh -3 and S100A4 MyoIIA -6.
For COc1ccc(CN(C)C[C@H]2OCCCC[C@H](C)Oc3ccc(NS(=O)(=O)c4cccs4)cc3C(=O)N([C@H](C)CO)C[C@H]2C)cc1 the results were UUG fidelity 15, ARNT-TACC3 inh 8, AF4-AF9 inh 6, ERAP1 HTS inh -1, S100A4 MyoIIA 14 and E-sel inducer 0.

An excerpt from above in order of count of non-hydrogen atoms, rising.
For CC1CCC/C(=C\Nc2ccc(O)cc2)C1=O (stereo not drawn) the results were UUG fidelity -6 and ARNT-TACC3 inh 21*.
For C[C@H](CO)N1C[C@H](C)[C@H](CN(C)C(=O)Nc2ccccc2)Oc2ncc(C#CC3CC3)cc2C1=O the results were UUG fidelity -17, ARNT-TACC3 inh 1, AF4-AF9 inh -1, ERAP1 HTS inh -2, S100A4 MyoIIA -3 and E-sel inducer 1.
For COc1ccc(CN(C)C[C@H]2OCCCC[C@H](C)Oc3ccc(NS(=O)(=O)c4cccs4)cc3C(=O)N([C@H](C)CO)C[C@H]2C)cc1 the results were UUG fidelity 15, ARNT-TACC3 inh 8, AF4-AF9 inh 6, ERAP1 HTS inh -1, S100A4 MyoIIA 14 and E-sel inducer 0.

From PubChem
